In experiment [1] the target is circularly permuted Caspase-2 (unmutated) (human) (UniProt P42575).
Experiment [2] addresses circularly permuted Caspase-2 double mutant Asp323Thr/His226Ala (human) (UniProt P42575).

Amino acid sequences for entries named in this document (tags omitted).
UniProt P42575, whole entry, stated change not applied: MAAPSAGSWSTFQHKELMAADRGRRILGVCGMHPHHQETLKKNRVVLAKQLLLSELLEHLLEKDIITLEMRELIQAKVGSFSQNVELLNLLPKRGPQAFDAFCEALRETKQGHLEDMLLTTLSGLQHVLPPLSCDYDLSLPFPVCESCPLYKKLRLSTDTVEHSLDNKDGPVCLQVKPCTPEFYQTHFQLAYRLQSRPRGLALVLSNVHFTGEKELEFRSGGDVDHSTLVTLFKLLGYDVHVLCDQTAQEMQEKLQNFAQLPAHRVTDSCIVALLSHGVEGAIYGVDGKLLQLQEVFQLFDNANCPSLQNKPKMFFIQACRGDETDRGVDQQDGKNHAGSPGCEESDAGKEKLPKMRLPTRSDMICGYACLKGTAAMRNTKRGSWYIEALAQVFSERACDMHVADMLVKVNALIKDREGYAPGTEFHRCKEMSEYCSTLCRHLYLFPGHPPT
UniProt P42575, whole entry H226A/D323T: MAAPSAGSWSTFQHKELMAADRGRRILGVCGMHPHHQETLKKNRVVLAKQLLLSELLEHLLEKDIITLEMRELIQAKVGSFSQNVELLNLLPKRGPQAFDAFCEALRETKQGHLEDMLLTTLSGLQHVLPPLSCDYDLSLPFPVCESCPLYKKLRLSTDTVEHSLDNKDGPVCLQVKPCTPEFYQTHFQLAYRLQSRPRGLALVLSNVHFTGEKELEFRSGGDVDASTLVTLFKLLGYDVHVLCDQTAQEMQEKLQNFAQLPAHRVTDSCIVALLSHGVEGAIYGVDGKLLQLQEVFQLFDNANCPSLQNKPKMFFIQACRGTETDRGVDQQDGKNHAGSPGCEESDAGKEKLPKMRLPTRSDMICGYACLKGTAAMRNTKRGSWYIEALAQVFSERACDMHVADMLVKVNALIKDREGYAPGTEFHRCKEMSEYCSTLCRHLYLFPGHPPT

In the case of Abz-VDVAD-AA-Dap(Dnp) (peptide), the K M (Michaelis-Menten kinetics, FRET peptide-based cleavage assay, 1 μM enzyme) in experiment [1] amounted to 89 µM.
Consider Abz-VDVAD-GA-Dap(Dnp) (peptide), for which the K M (Michaelis-Menten kinetics, FRET peptide-based cleavage assay, 1 μM enzyme) in experiment [1] came to 112 µM.
The same measure, in the same setting: as for Abz-VDVAD-IA-Dap(Dnp) (peptide), the figure is 71 µM.
As for Abz-VDVAD-LA-Dap(Dnp) (peptide), in experiment [1], the K M (Michaelis-Menten kinetics, FRET peptide-based cleavage assay, 1 μM enzyme) is 287 µM.
The same measure, in the same setting: the figure for Abz-VDVAD-PA-Dap(Dnp) (peptide) is 305 µM; for Abz-VDVAD-TA-Dap(Dnp) (peptide) it is 75 µM; for Abz-VDVAD-VA-Dap(Dnp) (peptide) it is 64 µM.

B1: Abz-VDVAD-IA-Dap(Dnp) (peptide)
peptide: VDVADIA
modifications: 2-aminobenzoyl (Abz) on the N-terminus; C-terminal diamino-propionic acid (Dap) carrying 2,4-dinitrophenyl (Dnp)
Consider B1, for which the K M (Michaelis-Menten kinetics, FRET peptide-based cleavage assay, 1 μM enzyme) in experiment [2] is 67 µM.

(Values after paper PMC7497161.)
